Columns and labels:
[1] = test system: cellular pERK in NCI-H441 (KRAS-G12V) cell-line; experiment: Cell based pERK assay (HTRF), NCI-H441; details: NCI-H441 (KRAS-G12V) cells, 2 hours incubation
Experimental: (§1) Compounds were tested in a 384-well assay format for their ability to inhibit cellular pERK in Kuramochi (WT KRAS), MIA-PaCa-2 (KRAS-G12C), ASPC-1 (KRAS G12D), and NCI-H441 (KRAS-G12V) cell-lines. Compounds were serially diluted (1:3) in DMSO. On day −1, 80 uL of cells were plated per well in the 384 well tissue-culture plates (Greiner: Cat #781080) to seed 5000 cells per wells of AsPC-1 or 7500 cells of MIA-PaCa-2, NCI-H441, and Kuramochi cell lines in RPMI (Corning: Cat #10-040-CM) with 10% fetal bovine serum (FBS) (HyClone: Cat #SH30071-03) and 1× penicillin-streptomycin-glutamate (PSG) (Corning: Cat #30-009-CI) for […] and Kuramochi cell lines and DMEM (Corning: Cat #15-018-CM) with […] and 1× PSG for MKA-PaCa-2 cell line. The plates were then incubated overnight at 37° C. and 5% CO2. On day 0, 400 nL of compound/well was added into the cell plates and mixed 5 times by pipetting using a Beckmann Biomek FX. The cell plates were then incubated for 2 hours at 37° C. and 5% CO2. HTRF Advanced Phospho-ERK1/2 ([…]) Detection Kits (PerkinElmer: Cat #64AERPEG) were used to prepare the lysis and detection solution according to manufacturer protocol. Following the 2 hour incubation, 70 μL of medium was aspirated from the plates and 10 uL of lysis and detection solution was added to the plates using a Biotek EL406 washer and dispenser. Plates were sealed and stored overnight at room temperature. HTRF ratio (665 nm/615 nm) was read by Envision multimode reader (PerkinElmer) the next day. The TR-FRET ratios were normalized to a positive (saturating concentration of known inhibitor) and negative (DMSO) control and plotted against the log of compound concentration. IC50 values were defined as the compound concentration that causes a […] in normalized signal and were calculated using a sigmoidal dose-response model to generate curve fits.

[2] = test system: cellular pERK in MIA-PaCa-2 (KRAS-G12C) cell-line; experiment: Cell based pERK assay (HTRF), MIA-PaCa-2; details: MIA-PaCa-2 (KRAS-G12C) cells, 2 hours incubation; read-out: MIAPaCa2 pERK EC50
Experimental: as §1

[3] = test system: cellular pERK in ASPC-1 (KRAS G12D) cell-line; experiment: Cell based pERK assay (HTRF), ASPC-1; details: ASPC-1 (KRAS G12D) cells, 2 hours incubation; read-out: AsPC1 pERK EC50
Experimental: as §1

[4] = test system: cellular pERK in Kuramochi (WT KRAS) cell-line; experiment: Cell based pERK assay (HTRF), Kuramochi; details: Kuramochi (WT KRAS) cells, 2 hours incubation
Experimental: as §1

| EC50 [1] [nM] | EC50 [2] [nM] | EC50 [3] [nM] | EC50 [4] [nM] | Compound |
| --- | --- | --- | --- | --- |
| 2.86 | 2.07 | 9.37 | 4.53 | C#Cc1c(F)ccc2cc(O)cc(-c3cc4c5c(nc(OC[C@@]67CCCN6C[C@H](F)C7)nc5c3F)N3CCCOCC3CC4)c12 (mixture of isomers) [Example 3-1, 5-ethynyl-6-fluoro-4-(10-fluoro-8-(((2R,7aS)-2-fluorotetrahydro-1H-pyrrolizin-7a(5H)-yl)methoxy)-1,4,5,13,14,14a-hexahydro-3H-[1,4]oxazepino[4′,3′:1,7]azepino[2,3,4-de]quinazolin-11-yl)naphthalen-2-ol] |
| 4.28 | 2.72 | 13.7 | 6.48 | C#Cc1c(F)ccc2cc(O)cc(-c3cc4c5c(nc(OC[C@@]67CCCN6C[C@H](F)C7)nc5c3F)N3CCCOC[C@H]3CC4)c12 (single isomer, unassigned) [Example 4-1] |
| 3.38 | 1.55 | 9.17 | 3.07 | C#Cc1c(F)ccc2cc(O)cc(-c3cc4c5c(nc(OC[C@@]67CCCN6C[C@H](F)C7)nc5c3F)N3CCCOC[C@@H]3CC4)c12 (single isomer, unassigned) [Example 4-2] |

Reference: patent US20240383922A1, “KRAS Modulating Compounds” (Gilead Sciences, Inc., priority 2023, published 2024)
